Biological target: human PLD2 (Homo sapiens, UniProt O14939)
Assay: In vitro exogenous substrate PLD activity assay, myr-Arf-1-stimulated hPLD2
Format: biochemical
Details: in vitro enzyme assay

By UniProt entry, the sequences of proteins in these tests, tags left out. Where a name states a change or a piece, a line headed by the entry shows the natural chain unless it says otherwise.
UniProt O14939: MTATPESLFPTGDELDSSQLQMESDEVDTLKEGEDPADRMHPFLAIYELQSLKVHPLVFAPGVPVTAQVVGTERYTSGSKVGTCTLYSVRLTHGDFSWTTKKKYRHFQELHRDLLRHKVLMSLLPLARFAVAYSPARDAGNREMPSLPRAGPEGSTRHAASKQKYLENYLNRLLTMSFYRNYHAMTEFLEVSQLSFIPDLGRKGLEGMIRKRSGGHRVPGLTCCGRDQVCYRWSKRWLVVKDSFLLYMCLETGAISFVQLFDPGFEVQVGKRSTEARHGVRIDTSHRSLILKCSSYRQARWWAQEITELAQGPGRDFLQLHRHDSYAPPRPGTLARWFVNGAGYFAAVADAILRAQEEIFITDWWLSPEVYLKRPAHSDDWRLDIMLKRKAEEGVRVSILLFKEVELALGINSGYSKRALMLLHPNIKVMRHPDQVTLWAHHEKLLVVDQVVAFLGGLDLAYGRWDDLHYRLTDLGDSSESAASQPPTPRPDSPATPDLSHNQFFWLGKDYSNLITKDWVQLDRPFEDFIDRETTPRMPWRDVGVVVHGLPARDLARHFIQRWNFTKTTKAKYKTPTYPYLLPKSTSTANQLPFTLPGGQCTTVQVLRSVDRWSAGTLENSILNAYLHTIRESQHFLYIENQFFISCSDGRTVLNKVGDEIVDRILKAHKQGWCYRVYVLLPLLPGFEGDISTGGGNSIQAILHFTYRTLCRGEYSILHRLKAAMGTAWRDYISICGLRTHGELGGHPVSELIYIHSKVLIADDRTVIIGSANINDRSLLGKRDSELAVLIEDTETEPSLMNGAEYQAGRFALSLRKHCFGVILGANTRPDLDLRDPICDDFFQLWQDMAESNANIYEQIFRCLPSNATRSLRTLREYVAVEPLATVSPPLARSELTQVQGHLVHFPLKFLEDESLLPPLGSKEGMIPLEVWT

## O=C(NCCN1CCC2(CC1)C(=O)NCN2c1ccccc1)c1ccc2ccccc2c1 [Compound 72]
  Preference for inhibition of PLD2 over PLD1, difference in in vitro IC50 values: approximately 40 fold

— PMC3798018 (Nature chemical biology, 2009)
